Amino acid sequences for entries named in this document (tags omitted). Residues count along the entry.
UniProt P25116, 22-425 limits assumed: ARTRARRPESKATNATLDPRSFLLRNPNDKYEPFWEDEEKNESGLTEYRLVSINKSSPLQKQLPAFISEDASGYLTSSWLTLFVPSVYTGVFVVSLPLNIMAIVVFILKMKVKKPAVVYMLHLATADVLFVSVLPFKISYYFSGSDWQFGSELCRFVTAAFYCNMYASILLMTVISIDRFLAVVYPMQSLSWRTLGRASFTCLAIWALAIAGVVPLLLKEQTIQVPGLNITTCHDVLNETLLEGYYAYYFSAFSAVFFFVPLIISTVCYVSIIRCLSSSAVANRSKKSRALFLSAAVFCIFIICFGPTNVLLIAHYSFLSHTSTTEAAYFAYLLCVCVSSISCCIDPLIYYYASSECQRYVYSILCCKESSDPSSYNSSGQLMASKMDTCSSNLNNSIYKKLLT

According to patent US8324172B2, “G protein coupled receptor agonists and antagonists and methods of activating and inhibiting G protein coupled receptors using the same” (Tufts Medical Center, Inc., priority 2000, dated 2012):

Target: PAR1 (Homo sapiens, UniProt P25116)
Experiment: InsP formation (PLC-β) in Rat1 fibroblasts expressing human PAR1
Format: cell-based
Conditions: PAR1-Rat1 cells; for EC50: read-out: EC50 of stimulation of InsP production

Row | Compound | EC50 [nM] | stimulation of InsP production (agonist activity)
1 | CCCCCCCCCCCCCCCC(=O)N[C@@H](C)C(=O)N[C@H](C(=O)N[C@@H](C)C(=O)N[C@@H](CC(N)=O)C(=O)N[C@@H](CCCNC(=N)N)C(=O)N[C@@H](CO)C(=O)N[C@@H](CCCCN)C(=O)N[C@@H](CCCCN)C(=O)N[C@@H](CO)C(=O)N[C@@H](CCCNC(=N)N)C(=O)N[C@@H](C)C(=O)N[C@@H](CC(C)C)C(=O)N[C@@H](Cc1ccccc1)C(N)=O)C(C)C [Pepducin P1pal-13] | 700 | –
2 | CCCCCCCCCCCCCCCC(=O)N[C@@H](CCCNC(=N)N)C(=O)N[C@@H](CS)C(=O)N[C@@H](CC(C)C)C(=O)N[C@@H](CO)C(=O)N[C@@H](CO)C(=O)N[C@@H](CO)C(=O)N[C@@H](C)C(=O)N[C@H](C(=O)N[C@@H](C)C(=O)N[C@@H](CC(N)=O)C(=O)N[C@@H](CCCNC(=N)N)C(=O)N[C@@H](CO)C(N)=O)C(C)C [Pepducin P1pal-12] | – | loss of stimulatory activity
3 | CCCCCCCCCCCCCCCC(=O)N[C@@H](CCCNC(=N)N)C(=O)N[C@@H](CS)C(=O)N[C@@H](CC(C)C)C(=O)N[C@@H](CO)C(=O)N[C@@H](CO)C(=O)N[C@@H](CO)C(=O)N[C@@H](C)C(=O)N[C@H](C(=O)N[C@@H](C)C(=O)N[C@@H](CC(N)=O)C(=O)N[C@@H](CCCNC(=N)N)C(=O)N[C@@H](CO)C(=O)N[C@@H](CCCCN)C(=O)N[C@@H](CCCCN)C(=O)N[C@@H](CO)C(=O)N[C@@H](CCCNC(=N)N)C(=O)N[C@@H](C)C(=O)N[C@@H](CC(C)C)C(=O)N[C@@H](Cc1ccccc1)C(N)=O)C(C)C [Pepducin P1pal-19] | 180 | –
4 | CCCCCCCCCCCCCCCC(=O)N[C@@H](CCCCN)C(=O)N[C@@H](CCCCN)C(=O)N[C@@H](CO)C(=O)N[C@@H](CCCNC(=N)N)C(=O)N[C@@H](C)C(=O)N[C@@H](CC(C)C)C(=O)N[C@@H](Cc1ccccc1)C(N)=O [Pepducin P1pal-7, Pal-KKSRALF] | – | loss of stimulatory activity
